From ChEMBL document CHEMBL4265992, “Noncovalent Inhibitors of Mosquito Acetylcholinesterase 1 with Resistance-Breaking Potency” (J Med Chem, 2018)

How the values were obtained:
[1] = Selectivity ratio of IC50 for recombinant human AChE to IC50 for recombinant Aedes aegypti AChE1
Summary of the method: (§1)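 Ratio = IC50 for hAChE divided by the higher of the IC50 values for AaAChE1 and AgAChE1. All IC50 values came from the Ellman assay with secreted recombinant enzymes.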

[2] = Selectivity ratio of IC50 for recombinant human AChE to IC50 for recombinant Anopheles gambiae AChE1; summary of the method: as §1

Work on `CCN1CCN(C2CCN(C(=O)COc3ccc(-c4ccccc4)cc3)CC2)CC1` yielded a Ratio IC50 [1] of 141 and a Ratio IC50 [2] of 141.
